# T1: Bovine, dephosphorylated, Myelin Basic Protein (MBP), P02687
# T1 chain: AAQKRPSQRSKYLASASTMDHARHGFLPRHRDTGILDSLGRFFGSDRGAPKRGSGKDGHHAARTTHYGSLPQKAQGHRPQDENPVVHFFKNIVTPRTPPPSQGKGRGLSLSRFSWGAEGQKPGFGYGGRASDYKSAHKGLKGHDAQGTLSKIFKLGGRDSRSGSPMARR
# B1: INSR (N-terminal His, PV3664) (protein)
# chain: RKRQPDGPLGPLYASSNPEYLSASDVFPCSVYVPDEWEVSREKITLLRELGQGSFGMVYEGNARDIIKGEAETRVAVKTVNESASLRERIEFLNEASVMKGFTCHHVVRLLGVVSKGQPTLVVMELMAHGDLKSYLRSLRPEAENNPGRPPPTLQEMIQMAAEIADGMAYLNAKKFVHRDLAARNCMVAHDFTVKIGDFGMTRDIYETDYYRKGGKGLLPVRWMAPESLKDGVFTTSSDMWSFGVVLWEITSLAEQPYQGLSNEQVLKFVMDGGYLDQPDNCPERVTDLMRMCWQFNPKMRPTFLEIVNLLKDDLHPSFPEVSFFHSEENKAPESEELEMEFEDMENVPLDRSSHCQREEAGGRDGGSSLGFKRSYEEHIPYTHMNGGKKNGRILTLPRSNPS
# B2: INSR (N-terminal GST, PV3781) (protein)
# chain: B1 chain
# B3: GSK3B (protein)
# chain: MSGRPRTTSFAESCKPVQQPSAFGSMKVSRDKDGSKVTTVVATPGQGPDRPQEVSYTDTKVIGNGSFGVVYQAKLCDSGELVAIKKVLQDKRFKNRELQIMRKLDHCNIVRLRYFFYSSGEKKDEVYLNLVLDYVPETVYRVARHYSRAKQTLPVIYVKLYMYQLFRSLAYIHSFGICHRDIKPQNLLLDPDTAVLKLCDFGSAKQLVRGEPNVSYICSRYYRAPELIFGATDYTSSIDVWSAGCVLAELLLGQPIFPGDSGVDQLVEIIKVLGTPTREQIREMNPNYTEFKFPQIKAHPWTKVFRPRTPPEAIALCSRLLEYTPTARLTPLEACAHSFFDELRDPNVKLPNGRDTPALFNFTTQELSSNPPLATILIPPHARIQAAASTPTNATAASDANTGDRGQTNNAASASASNST
# B4: LCK (protein)
# chain: MGCGCSSHPEDDWMENIDVCENCHYPIVPLDGKGTLLIRNGSEVRDPLVTYEGSNPPASPLQDNLVIALHSYEPSHDGDLGFEKGEQLRILEQSGEWWKAQSLTTGQEGFIPFNFVAKANSLEPEPWFFKNLSRKDAERQLLAPGNTHGSFLIRESESTAGSFSLSVRDFDQNQGEVVKHYKIRNLDNGGFYISPRITFPGLHELVRHYTNASDGLCTRLSRPCQTQKPQKPWWEDEWEVPRETLKLVERLGAGQFGEVWMGYYNGHTKVAVKSLKQGSMSPDAFLAEANLMKQLQHQRLVRLYAVVTQEPIYIITEYMENGSLVDFLKTPSGIKLTINKLLDMAAQIAEGMAFIEERNYIHRDLRAANILVSDTLSCKIADFGLARLIEDNEYTAREGAKFPIKWTAPEAINYGTFTIKSDVWSFGILLTEIVTHGRIPYPGMTNPEVIQNLERGYRMVRPDNCPEELYQLMRLCWKERPEDRPTFDYLRSVLEDFFTATEGQYQPQP
# Biological target: T1, Bovine, dephosphorylated, Myelin Basic …
row,Protein,MBP Kinase Activity
1,B1,Strong
2,B2,Strong
3,B3,Negative
4,B4,Strong

# Source: patent US20090099029
